# Binding of CDR-mutated scFvs to a peptide of the spike HR2 region

Antigen: PDVDLGDISGINAS, a 14-residue peptide of the SARS-CoV-2 spike HR2 region.

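Phage display of a naive human antibody library on the peptide gave the parent. This is the validation round: designs drawn from the data on random variants, tested in the same kind of assay. Their group label is 14H_GPLM_Gibbs (GPLM: also part of the Gaussian process libraries; Gibbs: Gibbs sampling; a sequence that several methods proposed may carry one label only). The assay is AlphaSeq: two haploid yeast populations carry antibody and antigen on their surface. After mating in shaken culture at 30 °C for 16 h, diploids were selected and their barcode pairs sequenced. Scores were corrected for input abundance and mapped to Kd with protein pairs of known affinity run in the same pool. There are six technical replicates.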

Parent scFv Ab-14: VH joined to VL by a (GGGGS)3 linker. Changes lie in the heavy chain CDRs alone.
VH: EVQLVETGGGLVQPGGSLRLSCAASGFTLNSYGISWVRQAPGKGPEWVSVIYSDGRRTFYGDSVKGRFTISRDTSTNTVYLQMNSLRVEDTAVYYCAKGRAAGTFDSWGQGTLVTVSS
VL: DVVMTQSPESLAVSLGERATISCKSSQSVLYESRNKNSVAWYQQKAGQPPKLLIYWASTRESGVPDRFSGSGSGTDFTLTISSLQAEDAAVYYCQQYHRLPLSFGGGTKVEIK

Changes read parent residue, position, new residue, counted from the first residue of the VH shown. Values are log10 of the apparent Kd in nM; lower means stronger binding. Replicates are averaged; those with no signal do not enter the mean. Where no diploid with the target was found in that replicate, the entry reads "ND": below detection, most likely a poor binder, though not proof of it. The authors averaged sequences with at least three values out of six and counted those with two or fewer as poor binders.

For R100K A101E S107L, the assay gave 0.61, 0.62, 0.63, 0.53, 0.74, 0.38 (mean 0.58; controls 0 of 18).
For T28D S31T R100E S107R, the assay gave 0.04, -0.03, 0.88, -0.39, -0.36, 0.38 (mean 0.09; controls 0 of 18).
For G61S S63R R100E S107K, the assay gave 2.88, 1.92, ND, ND, ND, 2.87 (mean 2.56; controls 0 of 18).
For T28D G61A R100Q S107N, the assay gave 0.93, 0.25, 0.64, 0.07, 1.69, 0.38 (mean 0.66; controls 1 of 18).
For G26H T28N G61I R100N, the assay gave 2.11, 2.27, 1.32, 1.44, 1.35, 1.86 (mean 1.73; controls 1 of 18).
For T28D F59A A101T, the assay gave 0.08, -0.08, 0.03, 0.02, -0.17, 0.30 (mean 0.03; controls 0 of 18).
For R100K A101T S107V, the assay gave 0.99, 1.09, 0.51, 0.51, 1.37, 1.65 (mean 1.02; controls 0 of 18).
For T28N G61A S63D A101T, the assay gave 1.20, 0.85, 0.89, 0.76, 0.75, 0.79 (mean 0.87; controls 2 of 18).
For T28W S31E A101Q, the assay gave ND, ND, ND, ND, ND, ND (controls 0 of 18).
For T28E S31E R56W A101T, the assay gave 0.63, 0.45, 0.35, 0.50, 0.49, 0.35 (mean 0.46; controls 0 of 18).
For T28S S63Q R100K A101N, the assay gave ND, 0.22, 0.19, -0.20, 1.06, 0.07 (mean 0.27; controls 0 of 18).
For R56K G61S A101S, the assay gave 1.04, 1.16, 0.39, 1.50, ND, 1.85 (mean 1.19; controls 0 of 18).
For T28N G61H A101Q, the assay gave ND, ND, ND, 0.03, ND, ND (controls 0 of 18).
For T28N A101N S107T, the assay gave 0.56, 0.85, 0.53, 0.81, 0.68, 0.99 (mean 0.74; controls 0 of 18).
For T28E G61A A101V S107K, the assay gave 1.21, 0.97, 1.92, 1.07, 1.50, 1.46 (mean 1.35; controls 0 of 18).
For T28D R56M G61A A101T, the assay gave 0.24, 0.25, 0.23, 0.25, 0.21, 0.26 (mean 0.24; controls 0 of 18).
For N30E S63D R100K, the assay gave 3.70, 1.30, 0.83, 1.56, 2.41, 2.57 (mean 2.06; controls 1 of 18).
For T28E G61S A101Q S107T, the assay gave ND, ND, 0.08, ND, ND, ND (controls 0 of 18).
For T28D A101Q S107N, the assay gave 0.92, 0.66, ND, 0.38, 0.98, 0.66 (mean 0.72; controls 2 of 18).
For T28S G61V R100N A101V, the assay gave 0.31, 0.75, 0.75, 0.29, 0.36, 0.62 (mean 0.51; controls 2 of 18).
For T28S G61A A101Q S107N, the assay gave 0.71, 0.36, 0.75, 0.60, 0.94, 0.54 (mean 0.65; controls 0 of 18).
For T28D R100L A101N, the assay gave 0.57, 0.27, 0.07, 0.22, 0.06, 0.57 (mean 0.29; controls 1 of 18).
For T28H R100K A101T, the assay gave ND, 0.72, ND, 1.57, 1.12, 1.50 (mean 1.23; controls 0 of 18).
For T28G S31E R100K A101T, the assay gave 0.45, 0.20, -0.64, 0.07, 0.50, 0.95 (mean 0.25; controls 1 of 18).
For T28S R100L A101E, the assay gave 0.71, 0.39, 1.00, 0.28, 0.29, 0.79 (mean 0.58; controls 0 of 18).
For T28D G61K R100Q A101T, the assay gave 0.21, 0.46, 0.81, -0.23, -0.19, -0.03 (mean 0.17; controls 0 of 18).
For T28G G61I R100K, the assay gave ND, ND, ND, ND, ND, ND (controls 0 of 18).
For T28E G61V S63D A101T, the assay gave 0.54, -0.04, -0.20, 0.53, 0.71, 0.42 (mean 0.33; controls 0 of 18).
For T28D S63Q A101T, the assay gave 0.28, 2.55, 0.08, 0.40, 0.18, 0.28 (mean 0.63; controls 0 of 18).
For G61I R100Q A101V S107A, the assay gave 0.25, -0.26, 0.01, 0.21, 0.13, -0.06 (mean 0.05; controls 1 of 18).
For R56K S63A R100E S107N, the assay gave ND, ND, 1.91, 1.57, 1.89, ND (mean 1.79; controls 0 of 18).
For T28D S63M A101T, the assay gave 0.85, 0.64, 0.34, 0.25, 0.13, 0.17 (mean 0.40; controls 0 of 18).
For G61A R100Q A101V S107L, the assay gave 1.58, 1.76, 0.92, 1.17, 0.94, 0.41 (mean 1.13; controls 0 of 18).
For T28E A101I S107T, the assay gave 0.59, 0.51, 0.23, 0.23, 0.42, 0.45 (mean 0.41; controls 1 of 18).
For G61I R100Q A101V S107T, the assay gave ND, ND, ND, ND, ND, 1.76 (controls 0 of 18).
For T28N G61A A101S, the assay gave ND, 1.04, 1.19, 1.86, 3.02, ND (mean 1.78; controls 0 of 18).
For T28E G61I R100D, the assay gave ND, ND, ND, ND, 1.21, 1.60 (mean 1.41; controls 0 of 18).
For G61H R100Q A101V, the assay gave 1.33, 1.01, 0.68, 0.97, 0.45, 0.99 (mean 0.91; controls 0 of 18).
For T28S G61I R100W A101T, the assay gave 1.18, 1.57, 1.48, 1.74, 2.82, 2.02 (mean 1.80; controls 0 of 18).

A sequence measured in both rounds can read differently, since the two assays cover different ranges. Three control strains display no target. For all heavy chain designs, 1% of the pairings with them gave a signal, with a median of 2.08 and one signal in twenty below 0.84, so weak values seen in few replicates may be background. Also given: how often the same scFv was detected with the empty control strains.

Values reported by Li et al. 2023, doi:10.1038/s41467-023-39022-2 (FLAb copy).